# Antibody variant affinities, Ab-14 heavy chain, assay B

Data: MIT Lincoln Laboratory AlphaSeq set, Li et al. 2023, doi:10.1038/s41467-023-39022-2, as distributed in FLAb.

The target is the same throughout: PDVDLGDISGINAS, from the HR2 region of SARS-CoV-2 spike.

Parent scFv Ab-14: VH joined to VL by the linker GGGGSGGGGSGGGGS. Changes lie in the heavy chain CDRs alone.
VH: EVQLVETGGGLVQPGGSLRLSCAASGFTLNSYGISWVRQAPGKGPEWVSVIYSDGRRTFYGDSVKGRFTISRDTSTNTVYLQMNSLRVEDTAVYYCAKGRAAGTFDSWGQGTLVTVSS
VL: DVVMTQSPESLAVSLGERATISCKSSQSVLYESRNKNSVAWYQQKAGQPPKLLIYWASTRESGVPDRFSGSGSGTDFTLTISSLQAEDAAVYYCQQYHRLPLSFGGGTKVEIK

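Phage display of a naive human antibody library on the peptide gave the parent. This is the validation round: designs drawn from the data on random variants, tested in the same kind of assay. Several design methods are mixed in this list. AlphaSeq pools MATa yeast showing the antibodies with MATalpha yeast showing the peptide. Pairs that bind mate more often; barcode pairs of the diploids are counted by sequencing. A regression on co-assayed BCL2-family reference pairs converts the normalised counts of each replicate to an apparent Kd. Mating was done six times.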

Positions count from residue 1 of the parent VH; T28K puts K in place of T. Variants here have at most six changes. Numbers give log10(Kd / nM), so 0 is 1 nM and 3 is 1 µM. Smaller is tighter. Averages over replicates are reported, and they cover detected replicates only. Where no diploid with the target was found in any replicate, the entry reads "nd": below detection, most likely a poor binder, though not proof of it.

For T28K+R100Q+A101T, the assay gave 1.70 (6 of 6 replicates). For S31E+G61T+D106I, the assay gave 1.77 (1 of 6 replicates). For S31D+F59W+D106W, the assay gave nd (0 of 6 replicates). Variant G26H+T28S+S31E+G61H+A101T showed 1.38 (1 of 6 replicates). Variant S31D+G61I+R100H showed -0.44 (5 of 6 replicates). For T28D+S31E+S107V, the assay gave -0.26 (6 of 6 replicates). Variant I51M+S53A+A102Y gave nd (0 of 6 replicates).

For T28S+G61A+S107L, the assay gave 0.52 (5 of 6 replicates). With T28W+N30L+G99D+R100I+F105K+S107Y the result was nd (0 of 6 replicates). Variant G61V+S63D+R100Q+S107T showed 0.89 (6 of 6 replicates). For S31K+Y32Q+R100M+A101W+T104A, the assay gave 2.31 (1 of 6 replicates). For N30L+R100G, the assay gave 0.95 (6 of 6 replicates). Variant T28S+G61S+R100H+A102G gave 0.74 (6 of 6 replicates). For G26H+T28D+A101E, the assay gave 0.42 (5 of 6 replicates).

Variant S31E+G61T+A101T+S107M showed 0.74 (6 of 6 replicates). Variant T28S+S31E+F59W+A101T gave 0.21 (6 of 6 replicates). For T28S+S31N+G61V+A101Q, the assay gave -0.29 (3 of 6 replicates). For T28D+A101E+S107A, the assay gave -0.11 (6 of 6 replicates). With N30L+G99R+R100V+D106R the result was 2.48 (1 of 6 replicates). Variant T28D+G61V+S63D+A101N gave -0.22 (6 of 6 replicates). With S53A+A101L the result was 1.50 (6 of 6 replicates).

Variant T28S+S31E+S63D+R100Q showed 0.39 (5 of 6 replicates). For N30D+Y32L+D62R+F105A+D106L, the assay gave nd (0 of 6 replicates). Variant N30E+G61A+S63D+S107T showed 0.40 (6 of 6 replicates). Variant T28D+G61I+D106W+S107M showed nd (0 of 6 replicates). Variant G26K+A101S gave nd (0 of 6 replicates). With G61Q+R100D+D106F+S107T the result was nd (0 of 6 replicates). Variant G61T+V64T+G99L+S107G gave nd (0 of 6 replicates).

Variant T28S+G61T+R100N showed 0.20 (6 of 6 replicates). With G61Q+A101V+T104Q the result was nd (0 of 6 replicates). For T28Q+S31D+D106E, the assay gave 2.25 (4 of 6 replicates). With F27E+K65V the result was nd (0 of 6 replicates). Variant S31Q+G61S+T104F+D106T showed 3.71 (3 of 6 replicates). For L29V+R100V+D106V, the assay gave nd (0 of 6 replicates). Variant T28D+S31E+S53A+G61A+R100E+A101F showed 0.27 (6 of 6 replicates).

Variant R56Q+S63D+R100K+A101T+S107K gave 1.12 (6 of 6 replicates). Variant T28D+G61I+T104H showed 2.48 (1 of 6 replicates). With G26Q+T28D+A101T the result was 1.80 (3 of 6 replicates). Variant F27I+S31E+G61T+V64L+A101F+S107E gave nd (0 of 6 replicates). Variant R56M+G103L gave nd (0 of 6 replicates). Variant S53A+R56H+F59A+R100E+F105I+D106W showed nd (0 of 6 replicates). Variant T28S+G61A+S63D+R100Q+S107K showed -0.11 (6 of 6 replicates).

With K65V+A102S+S107T the result was nd (0 of 6 replicates). Variant S31E+G61S+G99C+R100E gave nd (0 of 6 replicates). Variant T28D+L29I+T58K+T104W+D106W gave nd (0 of 6 replicates). Variant T28S+G61I+A101E showed 0.25 (6 of 6 replicates). With T28N+R100W+A101V the result was 1.67 (4 of 6 replicates). Variant T28V+S31E+F59Q+G61I showed 1.72 (4 of 6 replicates). With T28S+S31T+R100K the result was 0.66 (4 of 6 replicates).

Variant T28W+S31D+F59E gave 0.69 (6 of 6 replicates).

From the list, the first 5 with no signal in any replicate:

{"changes": "S31D+F59W+D106W", "log10 Kd (nM), mean": "nd", "seen in": "0 of 6"}
{"changes": "I51M+S53A+A102Y", "log10 Kd (nM), mean": "nd", "seen in": "0 of 6"}
{"changes": "T28W+N30L+G99D+R100I+F105K+S107Y", "log10 Kd (nM), mean": "nd", "seen in": "0 of 6"}
{"changes": "N30D+Y32L+D62R+F105A+D106L", "log10 Kd (nM), mean": "nd", "seen in": "0 of 6"}
{"changes": "T28D+G61I+D106W+S107M", "log10 Kd (nM), mean": "nd", "seen in": "0 of 6"}

Three control strains display no target. For all heavy chain designs, 1% of the pairings with them gave a signal, with a median of 2.08 and one signal in twenty below 0.84, so weak values seen in few replicates may be background. Of ten entries with the parent sequence, four were seen in most replicates (averages 0.34 to 2.37), three in one and three in none, so single entries are noisy. A sequence measured in both rounds can read differently, since the two assays cover different ranges. The authors' rule: three or more of the six replicates give a measured affinity, fewer mean a poor binder.